Laboratory results from BindingDB's records for doi:10.1021/acsmedchemlett.1c00450 (The Genomics Institute of The Novartis Research Foundation, 2021).
pIC50: −log10 of the molar value.

Target: Proto-oncogene tyrosine-protein kinase receptor Ret (Homo sapiens) (UniProt P07949)
Experiment: Inhibition of CCDC6-RET fusion protein (unknown origin) expressed in human LC-2-ad cells assessed as reduction in cell proliferation incubated for 6 days by d CellTiter Glo assay

pIC50: 6.96
SMILES: COC(=O)NC12CCC(n3cc(-c4ccc(Cl)c(N)c4)c4c(N)ncnc43)(CC1)CC2
